Reference: ChEMBL document CHEMBL2401653, “Synthesis, structure-property relationships and pharmacokinetic evaluation of ethyl 6-aminonicotinate sulfonylureas as antagonists of the P2Y₁₂ receptor” (Eur J Med Chem, 2013)

Sequences of proteins named here, by UniProt entry; tags and fusion partners are left off. A change or cut given only in a name is not applied to a line headed by its entry.
UniProt Q9H244: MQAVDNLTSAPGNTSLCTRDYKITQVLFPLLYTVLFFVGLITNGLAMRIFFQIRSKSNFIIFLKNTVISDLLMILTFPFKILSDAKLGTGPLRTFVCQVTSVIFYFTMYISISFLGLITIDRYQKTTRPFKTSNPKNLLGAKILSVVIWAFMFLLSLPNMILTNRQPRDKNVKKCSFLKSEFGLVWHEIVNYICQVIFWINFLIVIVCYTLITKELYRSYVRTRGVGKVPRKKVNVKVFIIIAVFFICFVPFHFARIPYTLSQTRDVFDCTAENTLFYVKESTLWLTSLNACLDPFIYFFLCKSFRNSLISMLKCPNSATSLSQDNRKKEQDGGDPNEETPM

What was measured:
[1] = target: T1, P2Y purinoceptor 12 (Homo sapiens, UniProt Q9H244)
[2] = target: T1, P2Y purinoceptor 12; remark: listed apart in the source

IC50 [1]: 25 nM
IC50 [2]: 6.3 nM
SMILES: CCOC(=O)c1cc(C#N)c(N2CC(NC(=O)NS(=O)(=O)c3ccc(Cl)s3)C2)nc1C
